This assay concerns monoclonal antibody that recognizes the 3,6-dideoxy-D-galactose (abequose) epitope in Salmonella paratyphi B O-antigens.

For the compound `COC1OC(CO)C(O)C(OC2OC(C)C(O)CC2O)C1O` (centres unmarked) [compound 4], under “Solution A (compounds 1-4), compound 4 at 0.16 μM, absence of library”, the breakthrough volume was found to be 3.0 ± 0.1 µL. The “breakthrough volume of the indicator compound” value (after pre-equilibration of the column with compound 5 (15 μM), Solution C) was found to be 1.1 ± 0.3 µL.

These data come from patent US20060228754A1 (priority 1998, published 2006).
